By IC50 is commonly meant the concentration needed to halve the response being measured.

Amino acid sequences for entries named in this document (tags omitted). Residues count along the entry.
UniProt P00751, 26-764 limits assumed: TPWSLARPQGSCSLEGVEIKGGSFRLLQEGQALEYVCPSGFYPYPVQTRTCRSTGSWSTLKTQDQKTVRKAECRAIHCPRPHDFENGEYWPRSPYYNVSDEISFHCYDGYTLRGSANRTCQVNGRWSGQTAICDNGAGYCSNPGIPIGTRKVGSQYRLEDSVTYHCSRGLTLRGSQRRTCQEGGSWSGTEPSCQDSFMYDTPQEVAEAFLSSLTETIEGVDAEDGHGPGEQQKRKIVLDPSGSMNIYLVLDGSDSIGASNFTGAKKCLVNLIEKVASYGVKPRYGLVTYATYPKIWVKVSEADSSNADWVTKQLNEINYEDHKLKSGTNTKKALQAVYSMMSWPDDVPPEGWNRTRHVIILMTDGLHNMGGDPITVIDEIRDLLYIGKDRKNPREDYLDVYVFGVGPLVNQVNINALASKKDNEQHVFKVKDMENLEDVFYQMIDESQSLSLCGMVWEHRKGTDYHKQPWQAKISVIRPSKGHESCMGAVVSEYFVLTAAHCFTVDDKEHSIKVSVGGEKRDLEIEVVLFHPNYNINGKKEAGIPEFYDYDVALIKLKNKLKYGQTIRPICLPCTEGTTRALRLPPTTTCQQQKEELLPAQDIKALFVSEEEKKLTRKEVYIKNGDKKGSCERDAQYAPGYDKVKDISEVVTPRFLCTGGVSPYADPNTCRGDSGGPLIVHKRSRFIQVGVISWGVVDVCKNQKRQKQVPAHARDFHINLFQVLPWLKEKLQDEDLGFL

In patent US20230286947A1, “COMPLEMENT FACTOR B INHIBITOR, AND PHARMACEUTICAL COMPOSITION, PREPARATION METHOD AND USE THEREOF” (SHANGHAI MEIYUE BIOTECH DEVELOPMENT CO. LTD, priority 2020, published 2023) one finds IC50 data, which are given here for 1 molecule.

The target of this test is complement factor B in human serum (Homo sapiens, UniProt P00751). Nature of the test: Complement hemolytic activity assay (rabbit erythrocytes, normal human serum). The conditions noted are these: read-out: Hemolysis IC50, 37° C.

The structures appear in SMILES notation.

On to `COc1cc(C)c2[nH]ccc2c1CN1CCC2(CCC2OC)CC1c1ccc(C(=O)O)cc1` (stereo not shown), for which the half-inhibitory concentration (IC50) came out at 0.673 µM.
